Compounds with a hit are over-represented: about 2.8% of the library has one in this group of screens.
Wnt act: activators of Wnt/beta-catenin signaling | AID 743398 | hit rate 1.2% among 300,000 | Wnt/beta-catenin reporter cell assay, activator, plate reader | activation, % at 9.35 µM; in the data active = activation above about 30%, passing the limit was not always enough; inconclusive = no clear call, values can overlap the other calls;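 also: 0% = neutral control wells and 100% = positive control wells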
Yeast UUG start: modulators of yeast start codon fidelity, primary screen, whole organism, S. cerevisiae, single point, plate reader. S. cerevisiae UUG-firefly luciferase reporter, luminescence/redox ratio. activity score, % at 18.7 µM. actives 0.13% (n = 350,000);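 active = replicate mean at a twofold rise or more, about +100% in these data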;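 note: firefly luciferase made from a UUG start codon reports start codon fidelity; reporter light over untreated wells divided by growth signal over untreated wells; some hits fall short of that in this replicate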
esBAF inh: blocks esBAF chromatin remodeling in mouse ES cells; Bmi1-luciferase knock-in reporter, 24 h; 100% = twice the neutral-well signal; reporter increase, % at 12.5 µM; AID 602393; hit rate 2% among 350,000; in the data active = activation above about 40%; inconclusive = no clear call, values can overlap the other calls;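 also: 0% = median of the plate's neutral control wells and 100% = double that signal; a rise in the Bmi1 reporter signal indicates esBAF inhibition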
PglD DTNB: inhibitors of Campylobacter jejuni PglD acetyltransferase. purified PglD enzyme, DTNB colorimetric CoA detection. AID 602405. hit rate 0.098% among 360,000. inhibition, % at 12.5 µM; in the data active = inhibition above about 16%, passing the limit was not always enough; inconclusive = no clear call, values can overlap the other calls
miR-122 sensor: blocks miR-122 activity in Huh7 sensor cells; activation (reporter increase), % at 12.5 µM; Huh7 miR-122 Renilla luciferase sensor, 48 h; neutral wells = 0, positive control = 100; AID 602342; hit rate 0.3% among 340,000;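 active = mean replicate activation score at least 90 and every replicate individually at or above 90; inconclusive = only one of the two criteria met; inactive = neither criterion met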;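 also: higher luciferase means less miR-122 activity so hits act as miR-122 inhibitors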
MITF TRPM1 HTS: MITF TRPM1 promoter activation in melanoma cells | SK-MEL-5 TRPM1-promoter luciferase, 24 h; % of positive control, neutral wells = 0 | activation, % at 12.5 µM | hit rate 0.75% among 300,000 | AID 588334;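 active = mean activation of at least 80% with every replicate also reaching 80%; inconclusive = mean reaches 80% but some replicate falls short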;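 also: 0% = neutral control wells and 100% = parthenolide positive control wells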
An asterisk follows results filed as active; ? = inconclusive; / = no result; [ ] = dose if it differs, or a comment.

The line under a structure holds: Wnt act	Yeast UUG start	esBAF inh	PglD DTNB	miR-122 sensor	MITF TRPM1 HTS
1. CCOc1ccc(/C=N/NC(=O)c2ccoc2C)cc1OC
 : 20	10	48*	-1	-5	35
2. CNC[C@H]1Oc2ccc(NC(=O)Nc3ccccc3)cc2CC(=O)N([C@@H](C)CO)C[C@H]1C
 : /	-3	2	-6	-1[16.7 µM]	/
3. COc1cc(/C=N/n2cnnc2)ccc1OCc1ccc(C)cc1
 : /	/	57*	/	-9	71
4. COc1cccc(/C=N/NC(=O)c2cccc(N3CCCC3=O)c2)c1
 : 18	-12	73*	10	/	77
5. COc1ccc(C=NNC(=O)c2cc(C)oc2C)cc1O
 : -3	-19	66*	-1	9	35
6. Cc1noc(C)c1S(=O)(=O)Nc1ccc2c(c1)C(=O)N([C@H](C)CO)C[C@H](C)[C@H](CN(C)C(=O)c1ccccc1)OCCCC[C@H](C)O2
 : /	14	4	-3	0[16.7 µM]	/
7. Cc1ccccc1-c1ccc2c(c1)O[C@@H](CN(C)CC1CC1)[C@@H](C)CN([C@@H](C)CO)S2(=O)=O
 : /	35	-6	1	13[16.7 µM]	/
8. Cc1ccc(C(=O)CCNc2ccc(Br)cc2)o1
 : 5	-26	27	0	-5	29
9. Cc1ccc(NC(=O)COc2ccccc2C=O)cc1Cl
 : 0	/	47*	/	-2	54
10. O=C(COC(=O)C1CC1)Nc1ccc2c(c1)OCO2
 : 47*	/	/	/	/	11
11. CC(=O)Nc1ccccc1OCC(=O)c1ccc2c(c1)OCO2
 : 37*	-9	?	-1	5	/
12. Cc1ccc(C(=O)CCNc2ccccc2)o1
 : /	6	52*	-4	1	18
13. CC(=O)Nc1cccc(NC(=O)COc2ccccc2C)c1
 : 4	-15	13	1	-4	/
14. O=C(c1cccnc1)N1C[C@H]2[C@@H](c3ccccc31)[C@H](CO)N2C(=O)Nc1ccccc1Cl
 : /	-4	-3	0	-40[16.7 µM]	/
15. C[C@@H]1CN([C@H](C)CO)C(=O)c2cc(NC(=O)Nc3ccc(F)cc3)ccc2O[C@@H]1CN(C)Cc1ccc(C(=O)O)cc1
 : /	7	-1	20	-3[16.7 µM]	/

Some of these compounds in order of length of the SMILES, highest first.
The line under a structure holds: Wnt act	Yeast UUG start	esBAF inh	PglD DTNB	miR-122 sensor	MITF TRPM1 HTS
11. CC(=O)Nc1ccccc1OCC(=O)c1ccc2c(c1)OCO2
 : 37*	-9	?	-1	5	/
8. Cc1ccc(C(=O)CCNc2ccc(Br)cc2)o1
 : 5	-26	27	0	-5	29
12. Cc1ccc(C(=O)CCNc2ccccc2)o1
 : /	6	52*	-4	1	18

Entries of single compounds, looked up by structure. Order of values: Wnt act, Yeast UUG start, esBAF inh, PglD DTNB, miR-122 sensor, MITF TRPM1 HTS
Record of O=C(c1cccnc1)N1C[C@H]2[C@@H](c3ccccc31)[C@H](CO)N2C(=O)Nc1ccccc1Cl = /, -4, -3, 0, -40[16.7 µM], /
Record of COc1cc(/C=N/n2cnnc2)ccc1OCc1ccc(C)cc1 = /, /, 57*, /, -9, 71

Next records follow.
The line under a structure holds: Wnt act	Yeast UUG start	esBAF inh	PglD DTNB	miR-122 sensor	MITF TRPM1 HTS
16. O=C(COc1ccccc1Cl)Nc1ccc2c(c1)OCO2
 : 2	-12	36	-1	/	121*
17. Cc1ccccc1OCC(=O)Nc1ccc2c(c1)OCO2
 : 26	-14	21	6	-5	74
18. O=C(CCNc1ccccc1)c1ccc2c(c1)OCO2
 : 48*	-21	92*	-3	4	/
19. CN(C)CCC(=O)c1ccc2c(c1)OCO2
 : /	-5	-10	-5	-4	/
20. COc1cc(C)ccc1OCC(=O)Nc1ccc2c(c1)OCO2
 : 48*	1	17	0	-7	75
21. COc1ccccc1OCC(=O)Nc1ccc2c(c1)OCO2
 : 10	-7	35	3	/	46
22. Cc1cc(Cl)c(S(=O)(=O)Nc2ccc3c(c2)OCO3)cc1OCC(=O)NC1CCCCC1
 : /	-11	-6	5	94*	/
23. C[C@H](CO)N1C[C@H](C)[C@H](CN(C)C)Oc2ncc(C3=CCCC3)cc2C1=O
 : /	-8	1	-1	0[16.7 µM]	/
24. O=C1C2C3C=CC(CC3)C2C(=O)N1/N=C/c1c[nH]c2ccccc12 (stereo unspecified)
 : 1	/	61*	/	-3	50
25. COc1ccccc1/C=N/N1C(=O)C2C3C=CC(CC3)C2C1=O (stereo unspecified)
 : 0	/	-2	/	/	-3
26. CCC1CCc2c(sc(NC(=O)c3cccnc3)c2C(N)=O)C1 (stereo unspecified)
 : -5	1	38*	-4	/	43
27. NC(=O)c1c(NC(=O)c2cccnc2)sc2c1CCCC2
 : 5	/	/	/	-2	49
28. Cc1cccc(S(=O)(=O)N[C@@H]2CC[C@@H](CCn3cc(-c4ccccn4)nn3)O[C@H]2CO)c1
 : /	1	4	-1	/	/
29. O=C(c1cc2cc(Cl)ccc2o1)N1CCCC1
 : 14	-12	23	5	-29	46
30. O=C(c1cc2cc(Br)ccc2o1)N1CCCCC1
 : 16	1	49*	-7	/	30
31. Cc1noc(C)c1C(=O)Nc1nc(-c2cccs2)cs1
 : 30*	-16	?	3	10	42
32. Cc1ccc(-c2csc(NC(=O)c3c(C)noc3C)n2)cc1
 : 24	0	34	7	/	46
33. COc1ccc(-c2csc(NC(=O)c3c(C)noc3C)n2)cc1
 : 9	-14	48*	0	-2	33
34. CCc1noc(C)c1C(=O)Nc1nc(-c2cccs2)cs1
 : 12	5	/	-1	-3	24
35. COc1ccc(-c2csc(NC(=O)c3ccoc3C)n2)cc1
 : 13	/	/	/	/	86*
36. COc1ccc2nc(NC(=O)c3c(C)noc3C)sc2c1
 : 35*	-9	25	-2	5	/
37. COc1ccc(C#Cc2ccc3c(c2)[C@@H]2[C@@H](CCN2C(=O)c2ccccc2F)[C@H](CO)N3)cc1
 : /	-2	-1	2	1[16.7 µM]	/
38. COC(=O)c1c(-c2ccncc2)csc1NC(=O)c1ccoc1C
 : /	-45	36	-10	-3	88*
39. Cc1ccc(-c2csc(NC(=O)c3ccno3)n2)cc1
 : 15	-25	60*	-3	0	36
40. C[C@@H]1CCCCO[C@@H](CN(C)C(=O)Nc2ccccc2)[C@H](C)CN([C@@H](C)CO)C(=O)c2cc(NC(=O)Nc3cccc4ccccc34)ccc2O1
 : /	-14	-6	1	-3[16.7 µM]	/
41. CCCC#Cc1ccc2c(c1)O[C@H](CN(C)Cc1ccccc1)[C@H](C)CN([C@@H](C)CO)S2(=O)=O
 : /	/	-4	/	/	/
42. Oc1nc(Nc2ccccc2)sc1/C=C1\C=Nc2ccccc21
 : 23	-5	61*	2	8	88*
43. CCn1c(O)c(/C=C2\C=Nc3ccccc32)sc1=O
 : 39*	1	77*	-11	/	58
44. CCOC(=O)c1c(Nc2ccccc2)sc(/C=C2\C=Nc3ccccc32)c1O
 : /	-2	-8	0	-6	-7
45. Cc1cc(C)c(-c2nc3ccccc3s2)[nH]1
 : 14	-3	76*	-1	7	15
46. Cc1ccc2c(c1)-c1nc3ccccc3cc1C2=NC1CCCCC1
 : 47*	/	/	/	/	31
47. Cc1ccc2c(c1)C(=NC1CCCCC1)c1cc3ccccc3nc1-2
 : 20	/	/	/	/	2
48. CNC(C)C#Cc1ccc2c(=O)c3cc(C)c(C)cc3oc2c1 (stereo unspecified)
 : 9	-18	69*	0	/	26
49. C=CCn1cccc(C(=O)Nc2ccc(F)cc2)c1=O
 : 12	5	67*	-2	-1	56
50. COCCCNC(=O)c1cc(-c2cccnc2)nc2ccccc12
 : 0	-2	-2	0	-2	0
51. CCCc1ccc(-c2cc(C(=O)NCCc3ccc(S(N)(=O)=O)cc3)c3ccccc3n2)cc1
 : /	/	32	/	-3	106*
52. Cc1ccc(-c2cc(C(=O)NCc3ccccn3)c3ccccc3n2)cc1C
 : /	-36	48*	-2	/	33
53. COCCNC(=O)c1cc(-c2ccc(-c3ccccc3)cc2)nc2ccccc12
 : 9	-21	47*	-2	42	49
